Amino acid sequences for entries named in this document (tags omitted).
UniProt Q9NWZ3, whole entry: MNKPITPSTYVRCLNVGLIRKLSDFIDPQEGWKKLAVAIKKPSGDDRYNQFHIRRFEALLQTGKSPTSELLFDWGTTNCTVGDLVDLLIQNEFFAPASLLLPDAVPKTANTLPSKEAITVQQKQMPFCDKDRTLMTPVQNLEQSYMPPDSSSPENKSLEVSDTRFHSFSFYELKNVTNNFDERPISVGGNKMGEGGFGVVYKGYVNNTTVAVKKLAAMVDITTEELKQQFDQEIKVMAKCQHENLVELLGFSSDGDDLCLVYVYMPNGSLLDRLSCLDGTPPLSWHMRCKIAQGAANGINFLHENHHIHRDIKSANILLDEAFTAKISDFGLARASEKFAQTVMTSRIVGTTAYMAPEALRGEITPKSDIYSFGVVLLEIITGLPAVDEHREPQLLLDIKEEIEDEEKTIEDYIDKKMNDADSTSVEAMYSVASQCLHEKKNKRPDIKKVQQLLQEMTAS

In patent US10329302B2, “Bicyclic-fused heteroaryl or aryl compounds” (Pfizer Inc., priority 2014, dated 2019):

Target: human IRAK4 FL (Full Length) (Homo sapiens (Human), UniProt Q9NWZ3)
Assay: IRAK4 Enzymatic DELFIA Assay, Protocol A
Assay type: biochemical
Conditions: 0.6 mM ATP (KM)

**Q.** With `COc1cc2c(OC[C@@H]3CCC(=O)N3)nccc2cc1C(N)=O` [Example 121, 7-methoxy-1-{[(2S)-5-oxopyrrolidin-2-yl]methoxy}isoquinoline-6-carboxamide] as the compound, how does the IC50 read?
**A.** Its IC50 is 7.6 nM.

**Q.** `CCOc1cc2c(OC[C@@H]3CCC(=O)N3)nccc2cc1C(N)=O` [Example 122, 7-ethoxy-1-{[(2S)-5-oxopyrrolidin-2-yl]methoxy}isoquinoline-6-carboxamide] was tested. Which IC50 did it give?
**A.** The IC50 was 24 nM.

**Q.** For `COc1cc2c(OC[C@H]3NC(=O)[C@H](F)[C@H]3C)nccc2cc1C(N)=O` [Example 188, 1-{[(2S,3S,4R)-4-fluoro-3-methyl-5-oxopyrrolidin-2-yl]methoxy}-7-methoxyisoquinoline-6-carboxamide], which IC50 is on record?
**A.** The IC50 was 1.9 nM.

**Q.** For `COc1cc2c(OC[C@H]3NC(=O)[C@@H](F)[C@H]3C)nccc2cc1C(N)=O` [Example 189, 1-{[(2S,3S,4S)-4-fluoro-3-methyl-5-oxopyrrolidin-2-yl]methoxy}-7-methoxyisoquinoline-6-carboxamide], which IC50 is on record?
**A.** Its IC50 is 0.3 nM.

**Q.** `COc1cc2c(OC[C@H]3NC(=O)[C@@H](F)[C@@H]3C)nccc2cc1C(N)=O` [Example 203, 1-{[(2S,3R,4S)-4-fluoro-3-methyl-5-oxopyrrolidin-2-yl]methoxy}-7-methoxyisoquinoline-6-carboxamide] was tested. Which IC50 did it give?
**A.** Its IC50 is 3.5 nM.

**Q.** Which IC50 does the source give for `CC[C@H]1CC(=O)N[C@@H]1COc1nccc2cc(C(N)=O)c(OC)cc12` [Example 244, 1-{[(2S,3S)-3-ethyl-5-oxopyrrolidin-2-yl]methoxy}-7-methoxyisoquinoline-6-carboxamide] here?
**A.** The IC50 was 4.7 nM.

**Q.** `CC[C@@H]1CC(=O)N[C@@H]1COc1nccc2cc(C(N)=O)c(OC)cc12` [Example 246, 1-{[(2S,3R)-3-ethyl-5-oxopyrrolidin-2-yl]methoxy}-7-methoxyisoquinoline-6-carboxamide] was tested. Which IC50 did it give?
**A.** Its IC50 is 0.5 nM.

**Q.** With `COc1cc2c(OC[C@H]3NC(=O)[C@@H](C)[C@H]3C)nccc2cc1C(N)=O` [Example 247, 1-{[(2S,3R,4S)-3,4-dimethyl-5-oxopyrrolidin-2-yl]methoxy}-7-methoxyisoquinoline-6-carboxamide] as the compound, how does the IC50 read?
**A.** Its IC50 is 29 nM.

**Q.** `COc1cc2c(OC[C@H]3NC(=O)[C@H](C)[C@H]3C)nccc2cc1C(N)=O` [Example 248, 1-{[(2S,3R,4R)-3,4-dimethyl-5-oxopyrrolidin-2-yl]methoxy}-7-methoxyisoquinoline-6-carboxamide] was tested. Which IC50 did it give?
**A.** Its IC50 is 3.7 nM.

**Q.** With `COc1cc2c(OC[C@H]3CCC(=O)N3)nccc2cc1C(N)=O` [Example 255, 7-methoxy-1-{[(2R)-5-oxopyrrolidin-2-yl]methoxy}isoquinoline-6-carboxamide] as the compound, how does the IC50 read?
**A.** The IC50 was 1680 nM.

**Q.** With `COc1cc2c(OC[C@@H]3CCC(=O)N3)ccnc2cc1C(N)=O` [Example 262, 6-methoxy-4-{[(2S)-5-oxopyrrolidin-2-yl]methoxy}quinoline-7-carboxamide] as the compound, how does the IC50 read?
**A.** Its IC50 is 4.7 nM.
